For assay [1], the target named is T1, human serum albumin (HSA) (Homo sapiens, UniProt P02768). To be noted: stated as known; cited from earlier work.
Assay [2] addresses T1, human serum albumin (HSA). To be noted: 50 μM; HBSS1% (30% saliva, 1% DMSO) vs HBS1%; three times each; Fc3−Fc2, buffer injection subtracted; FIG. 6.

Amino acid sequences for entries named in this document (tags omitted). Residues count along the entry.
UniProt P02768, 25-609: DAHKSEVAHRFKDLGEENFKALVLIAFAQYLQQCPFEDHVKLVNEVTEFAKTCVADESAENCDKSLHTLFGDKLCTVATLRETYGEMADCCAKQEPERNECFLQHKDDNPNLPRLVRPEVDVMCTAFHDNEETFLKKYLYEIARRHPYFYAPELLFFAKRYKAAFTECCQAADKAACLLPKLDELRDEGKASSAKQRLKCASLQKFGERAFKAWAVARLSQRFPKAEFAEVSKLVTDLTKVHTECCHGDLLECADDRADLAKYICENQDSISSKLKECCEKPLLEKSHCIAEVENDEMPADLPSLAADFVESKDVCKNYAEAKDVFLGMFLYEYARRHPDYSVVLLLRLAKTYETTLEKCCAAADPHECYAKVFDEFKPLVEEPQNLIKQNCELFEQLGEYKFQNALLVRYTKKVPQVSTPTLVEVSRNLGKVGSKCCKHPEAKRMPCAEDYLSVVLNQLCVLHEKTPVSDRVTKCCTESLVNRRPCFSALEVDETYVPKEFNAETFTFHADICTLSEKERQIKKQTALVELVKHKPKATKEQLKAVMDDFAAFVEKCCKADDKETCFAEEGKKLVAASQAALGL

On to `CCC(Cc1c(I)cc(I)c(O)c1I)C(=O)O` (stereo not drawn) [iophenoxic acid, α-ethyl-3-hydroxy-2,4,6-triiodohydro-cinnamic acid], for which, in assay [1], the “binding to HSA” value is “known to bind to HSA”. Moreover, in assay [2], the “binding to immobilized HSA, corrected sensorgrams, saliva-containing buffer versus pure buffer” value is “sensorgrams D (saliva-containing buffer) agree with the sensorgrams C (pure buffer)”.

Values taken from patent US20060019313A1, “Method for detecting molecular surface interactions” (Biacore AB, priority 2004, published 2006).
